For data set [1], the system named is Caco-2 cell monolayers. The data set is classed as in vitro ADME, human. As for the experimental part: Caco-2, HepG2, and IEC-6 cells were maintained in Corning Costar polystyrene culture flasks (75 cm^2 or 175 cm^2 surface area from Sigma-Aldrich) in either Dulbecco'[…] Eagles medium (Caco-2 and IEC-6 cells) or Eagle's minimum essential medium (HepG2 cells). […] The cells were kept in a humidified incubator at 37 °C and 5% CO2 and subcultured weekly at approximately 90% confluency by trypsinization. […] Plastic-bottom plates for Caco-2 cells were coated using collagen (8.93 μg/cm^2) prior to seeding. The variations in cell densities and incubation length were necessary to ensure uniform confluence (approx. 90%). […] After the final sampling, TEER was measured using the previously described equilibration procedure. Afterward, the viability of the cell in the monolayers was determined by using 350 μL of the MTS/PMS buffer (240 μg/mL MTS and 2.4 μg/mL PMS in hHBSS pH 7.4) and 1000 μL hHBSS on the apical and basolateral side, respectively. After 1 h, the MTS/PMS buffer was collected from the apical side and analyzed at 492 nm using a plate reader (FLUOStar OPTIMA, BMG LABTECH, Ortenberg, Germany). […] Scintillation fluid (2 mL) was mixed with each sample that was subsequently quantified by liquid scintillation (Perkin-Elmer Tri-Carb 2910 TR, Perkin Elmer, Boston, MA, USA). […] The calculation of Papp from the permeation experiments was calculated as described by Artursson et al.. […]

A further data set deals with Caco-2 cell monolayer. Conditions: cited from earlier work.
The test system of data set [2] is Caco-2 cell monolayers. Conditions: Caco-2, pH 5; cited from earlier work.

SMILES strings stand for the structures.

`CC[C@@H](C)[C@@H](NC(=O)[C@@H](CCCCN)NC(=O)[C@H](NC(=O)[C@@H](CCC(N)=O)NC(=O)[C@H](N)CCCNC(=N)N)[C@H](C)CC)C(=O)N[C@H](Cc1c[nH]c2ccccc12)C(=O)N[C@H](Cc1ccccc1)C(=O)N[C@H](CCC(N)=O)C(=O)N[C@H](CC(N)=O)C(=O)N[C@H](CCCNC(=N)N)C(=O)N[C@H](CCCNC(=N)N)C(=O)N[C@H](CCSC)C(=O)N[C@H](CCCCN)C(=O)N[C@H](Cc1c[nH]c2ccccc12)C(=O)N[C@H](CCCCN)C(=O)N[C@H](CCCCN)C(=O)O` [D-PEN, D-Penetratin]: in the data set with Caco-2 cell monolayers [1], the “Fold increase in permeation of vancomycin compared to buffer alone” value was “five-fold”. In addition, in the data set with Caco-2 cell monolayer, the “Morphology of Caco-2 cell monolayer (transmission electron micrographs)” value is recorded as “did not result in morphologies different from that seen for the buffer control”. Also, in the data set on Caco-2 cell monolayers [2], the “Effect on insulin permeation across Caco-2 cell monolayers” value was “increase the permeation of insulin”.
Turning to `CC[C@H](C)[C@H](NC(=O)[C@H](CCCCN)NC(=O)[C@@H](NC(=O)[C@H](CCC(N)=O)NC(=O)[C@@H](N)CCCNC(=N)N)[C@@H](C)CC)C(=O)N[C@@H](Cc1c[nH]c2ccccc12)C(=O)N[C@@H](Cc1ccccc1)C(=O)N[C@@H](CCC(N)=O)C(=O)N[C@@H](CC(N)=O)C(=O)N[C@@H](CCCNC(=N)N)C(=O)N[C@@H](CCCNC(=N)N)C(=O)N[C@@H](CCSC)C(=O)N[C@@H](CCCCN)C(=O)N[C@@H](Cc1c[nH]c2ccccc12)C(=O)N[C@@H](CCCCN)C(=O)N[C@@H](CCCCN)C(=O)O` [L-PEN, L-Penetratin], the “Fold increase in permeation of vancomycin compared to buffer alone” value in the data set with Caco-2 cell monolayers [1] was “only a small increase”. Moreover, in the data set with Caco-2 cell monolayers [2], the “Effect on insulin permeation across Caco-2 cell monolayers” value is “increase the permeation of insulin” and the “Effect on insulin permeation across Caco-2 monolayer” value is reported as “increased insulin permeation”.

The values are drawn from publication PMC10304631, “Stereoisomer-Dependent Membrane Association and Capacity for Insulin Delivery Facilitated by Penetratin” (Pharmaceutics, 2023).
